Data published in publication PMC8343220, “The selectivity of α‐adrenoceptor agonists for the human α1A, α1B, and α1D‐adrenoceptors” (Pharmacology Research & Perspectives, 2021).

Amino acid sequences for entries named in this document (tags omitted). A change or cut given only in a name is not applied to a line headed by its entry.
UniProt P35348: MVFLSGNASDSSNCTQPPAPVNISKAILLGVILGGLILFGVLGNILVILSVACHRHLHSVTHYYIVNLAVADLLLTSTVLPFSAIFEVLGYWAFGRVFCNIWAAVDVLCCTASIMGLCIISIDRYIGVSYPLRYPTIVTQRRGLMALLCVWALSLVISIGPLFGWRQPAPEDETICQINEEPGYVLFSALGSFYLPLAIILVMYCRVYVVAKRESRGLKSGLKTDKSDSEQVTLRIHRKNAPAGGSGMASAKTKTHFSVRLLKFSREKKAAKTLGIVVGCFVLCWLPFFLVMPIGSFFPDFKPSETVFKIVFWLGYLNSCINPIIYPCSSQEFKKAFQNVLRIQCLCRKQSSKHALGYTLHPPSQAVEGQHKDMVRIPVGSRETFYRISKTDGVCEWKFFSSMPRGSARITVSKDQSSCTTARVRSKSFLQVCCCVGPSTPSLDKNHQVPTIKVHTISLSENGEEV
UniProt P35368, whole entry, looked up: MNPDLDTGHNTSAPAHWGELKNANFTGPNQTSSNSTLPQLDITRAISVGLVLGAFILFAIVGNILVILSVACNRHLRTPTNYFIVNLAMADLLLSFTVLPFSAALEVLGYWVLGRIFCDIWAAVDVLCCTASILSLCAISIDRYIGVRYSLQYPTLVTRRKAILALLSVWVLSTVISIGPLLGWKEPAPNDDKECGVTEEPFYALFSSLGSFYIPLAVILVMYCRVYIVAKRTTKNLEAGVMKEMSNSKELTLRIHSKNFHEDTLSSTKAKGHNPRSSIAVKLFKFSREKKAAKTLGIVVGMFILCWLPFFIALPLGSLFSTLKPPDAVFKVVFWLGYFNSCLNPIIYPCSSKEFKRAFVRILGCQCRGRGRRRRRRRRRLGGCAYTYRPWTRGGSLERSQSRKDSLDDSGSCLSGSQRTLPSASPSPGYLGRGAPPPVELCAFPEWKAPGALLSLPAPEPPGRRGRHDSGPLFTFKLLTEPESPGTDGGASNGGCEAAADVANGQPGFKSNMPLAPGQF
UniProt P25100, whole entry, looked up: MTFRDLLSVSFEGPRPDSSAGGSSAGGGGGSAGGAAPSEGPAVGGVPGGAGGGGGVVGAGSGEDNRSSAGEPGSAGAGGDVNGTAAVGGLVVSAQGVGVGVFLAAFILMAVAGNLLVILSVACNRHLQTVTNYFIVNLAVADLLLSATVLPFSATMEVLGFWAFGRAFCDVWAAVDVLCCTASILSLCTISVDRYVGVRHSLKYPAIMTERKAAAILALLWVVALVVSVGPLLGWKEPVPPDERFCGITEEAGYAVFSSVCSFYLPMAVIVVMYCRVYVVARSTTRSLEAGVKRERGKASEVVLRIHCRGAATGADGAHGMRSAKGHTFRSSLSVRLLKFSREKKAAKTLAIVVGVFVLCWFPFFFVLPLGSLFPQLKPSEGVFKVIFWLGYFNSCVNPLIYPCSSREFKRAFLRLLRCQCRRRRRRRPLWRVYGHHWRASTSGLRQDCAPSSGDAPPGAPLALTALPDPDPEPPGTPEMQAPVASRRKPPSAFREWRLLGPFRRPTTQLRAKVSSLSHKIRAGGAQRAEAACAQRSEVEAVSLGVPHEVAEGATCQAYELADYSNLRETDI

Assays:
human α1A‐adrenoceptor [1] = target: T1, human α1A‐adrenoceptor (Homo sapiens, UniProt P35348); assay: ^3H‐prazosin whole‐cell radioligand binding, CHO‐α1A cells
human α1B‐adrenoceptor [2] = target: T2, human α1B‐adrenoceptor (Homo sapiens, UniProt P35368); assay: ^3H‐prazosin whole‐cell radioligand binding, CHO‐α1B cells
[3] = target: T3, human α1D‐adrenoceptor (full length) (Homo sapiens, UniProt P25100); assay: ^3H‐prazosin whole‐cell radioligand binding, CHO‐α1D cells
human α1A‐adrenoceptor [4] = target: T1, human α1A‐adrenoceptor; assay: Intracellular free calcium mobilization, CHO‐α1A cells; format: cell-based
[5] = target: T3, human α1D‐adrenoceptor (full length); assay: Intracellular free calcium mobilization, CHO‐α1D cells; format: cell-based
human α1A‐adrenoceptor [6] = target: T1, human α1A‐adrenoceptor; assay: ERK1/2‐phosphorylation (Surefire Alphascreen), CHO‐α1A cells; format: cell-based; conditions: % of 10 µM PDBu, ^a bi‐phasic: initial stimulatory part
human α1B‐adrenoceptor [7] = target: T2, human α1B‐adrenoceptor; assay: ERK1/2‐phosphorylation (Surefire Alphascreen), CHO‐α1B cells; format: cell-based; conditions: for bi‐phasic responses the initial stimulatory part
[8] = target: T3, human α1D‐adrenoceptor (full length); assay: ERK1/2‐phosphorylation (Surefire Alphascreen), CHO‐α1D cells; format: cell-based
[9] = maximal response as % of 10 µM ionomycin

CN(CCCl)Cc1cc(Cl)c(NC2=NCCN2)c(Cl)c1
Log KD α1A, ^3H‐prazosin whole cell binding (human α1A‐adrenoceptor [1]; CHO‐α1A cells, given as log KD (negative), mean ± SEM): −5.43 ± 0.05 | Affinity selectivity ratio α1A vs α1B (human α1A‐adrenoceptor [1]; higher affinity for α1A than α1B): 1.2 fold | Log KD α1B, ^3H‐prazosin whole cell binding (human α1B‐adrenoceptor [2]; given as log KD (negative), mean ± SEM): −5.35 ± 0.07 | Log KD, ^3H‐prazosin binding (human α1B‐adrenoceptor [2]; whole‐cell binding (from Table 1), given as log KD (negative numbers)): −5.35 | 3H‐prazosin binding Log KD ([3]; CHO‐α1D cells, whole‐cell binding (from Table 1), log values given negative): −5.50 | Log KD α1D, ^3H‐prazosin whole cell binding ([3]; CHO‐α1D cells, given as log KD (negative), mean ± SEM, 'early plateau' = specific binding not fully inhibited): −5.50 ± 0.06 | Affinity selectivity ratio α1A vs α1D ([3]; higher affinity for α1D than α1A): 1.2 fold | Affinity selectivity ratio α1B vs α1D ([3]; higher affinity for α1D than α1B): 1.4 fold | Log efficacy ratio KD /EC50 (human α1A‐adrenoceptor [4]; binding KD and calcium EC50): 0.14 | Intracellular calcium release Log EC50 (human α1A‐adrenoceptor [4]; given as log EC50 (negative)): −5.57 ± 0.09 | Intracellular calcium release % ionomycin (human α1A‐adrenoceptor [4]; [9]): 38.4 ± 2.8% | Intracellular calcium release Log EC50 ([5]; log values given negative): No response | Intracellular calcium release % ionomycin [5, 9]: No response | ERK1/2‐phosphorylation % PDBu (human α1A‐adrenoceptor [6]): 66.5 ± 6.4% | ERK1/2‐phosphorylation Log EC50 (human α1B‐adrenoceptor [7]): No response | ERK1/2‐phosphorylation % PDBu (human α1B‐adrenoceptor [7]; maximal response as % PDBu response): No response | ERK1/2‐phosphorylation Log EC50 ([8]; log values given negative): No response | ERK1/2‐phosphorylation % PDBu ([8]; maximal response as % of PDBu): No response
